From patent publication US20230212272A1 (LONGBIO PHARMA SUZHOU, published 2023)

Key:
[1] = target: T1, C5 of normal human serum (NHS) (human, UniProt P01031 19-1676); assay: cell-based or functional assay
[2] = target: T1, C5 of normal human serum (NHS); assay: cell-based or functional assay; remark: listed apart in the source

B1: Ravulizumab (antibody, human IgG2, kappa, V domains shown)
VH: QVQLVQSGAEVKKPGASVKVSCKASGHIFSNYWIQWVRQAPGQGLEWMGEILPGSGHTEYTENFKDRVTMTRDTSTSTVYMELSSLRSEDTAVYYCARYFFGSSPNWYFDVWGQGTLVTVSS
VL: DIQMTQSPSSLSASVGDRVTITCGASENIYGALNWYQQKPGKAPKLLIYGATNLADGVPSRFSGSGSGTDFTLTISSLQPEDFATYYCQNVLNTPLTFGQGTKVEIKR
IC50 (ng/ml), classical pathway (CP) hemolysis inhibition [1]: 2680 ng/mL
IC90 (ng/ml), classical pathway (CP) hemolysis inhibition [1]: 9060 ng/mL
IC50 (ng/ml), inhibition of classical pathway hemolysis of sheep red blood cells by 1% NHS [2]: 1190 ng/mL
